Tested on: CCI rats (chronic constriction of the sciatic nerve of Wistar rats)

In the case of C/C(=C\C1C/C(=C/CCc2ccoc2)C(=O)O1)CCCc1ccoc1 (centres unmarked) [nitenin], the “efficacy, intraperitoneal administration” value (intraperitoneally) is reported as “successful” and the “efficacy, oral administration” value (via oral administration) is reported as “successful”.
